# Data from patent US20230117592A1 (SRI International, priority 2019, published 2023).
# Molecular target: T1, 12-LOX (Homo sapiens, UniProt P18054)
# T1 sequence (P18054 1-663): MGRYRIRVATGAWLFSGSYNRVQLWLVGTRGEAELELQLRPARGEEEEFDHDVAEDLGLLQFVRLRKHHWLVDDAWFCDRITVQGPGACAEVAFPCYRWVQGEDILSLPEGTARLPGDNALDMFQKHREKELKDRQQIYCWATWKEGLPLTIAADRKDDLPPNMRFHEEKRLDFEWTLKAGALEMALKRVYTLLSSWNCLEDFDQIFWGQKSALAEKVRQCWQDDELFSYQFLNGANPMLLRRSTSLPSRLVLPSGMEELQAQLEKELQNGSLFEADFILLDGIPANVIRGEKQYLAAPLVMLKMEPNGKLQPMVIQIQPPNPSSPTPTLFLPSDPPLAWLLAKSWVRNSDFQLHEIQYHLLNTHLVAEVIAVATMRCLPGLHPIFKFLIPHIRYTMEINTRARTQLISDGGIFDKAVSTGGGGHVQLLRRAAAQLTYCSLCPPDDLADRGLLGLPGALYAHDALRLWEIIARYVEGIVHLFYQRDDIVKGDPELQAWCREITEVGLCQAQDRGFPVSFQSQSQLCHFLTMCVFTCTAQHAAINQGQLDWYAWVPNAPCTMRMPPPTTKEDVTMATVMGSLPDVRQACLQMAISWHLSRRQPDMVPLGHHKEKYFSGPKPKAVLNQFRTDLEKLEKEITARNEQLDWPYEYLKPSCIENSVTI
# Experiment: 12-LOX fluorescent assay (in vitro lipoxygenase inhibition)
# Format: biochemical
# Method: 12-LOX/15-LOX Fluorescent Assay
# The enzyme assay (100 ul) contained 50 mM Tris, pH 7.5, 0.05% Tween-20, 20 μM AA/LA, 1 μM DHR123, and 100 nM recombinant 12-LOX enzyme/50 nM recombinant 15-LOX enzyme. Inhibitors (dissolved in DMSO) were plated at 1 μL into 96-well assay microplates followed by a 40 μL addition of a solution containing 12-LOX/15-LOX enzyme. Enzyme was pre-incubated with compounds for 15 mins. The assay was initiated by the addition of a 40 μL substrate solution containing AA/LA, and 20μL addition of a solution containing DHR123. Enzymatic reaction proceeded for 30 min with kinetic reading at 500 nm excitation & 536 nm emission in SpectraMax Paradigm (MolecularDevice). Percent inhibition was calculated for each compound dose for IC50 curve fitting using 4 Parameter Logistic Model or Sigmoidal Dose-Response Model.
structure (smiles),measurement,value
"CN(CCn1cncn1)c1cc(Nc2ccccc2)ccc1-c1ccccc1 [SS20308-0131-01, N2-(2-(1H-1,2,4-triazol-1-yl)ethyl)-N2-methyl-N4-phenyl-[1,1′-biphenyl]-2,4-diamine]",IC50,190 nM
